# Experimental properties from OPERA 2.9

Values as listed in the OPERA 2.9 repository of K. Mansouri.

Melting points are in °C. Boiling points are in °C, nominally at 760 mmHg. The octanol-water partition coefficient is given as log10; larger values mean a more lipophilic compound. Water solubility is log10 of mol/L, nominally at 25 °C; higher is more soluble. Vapor pressure is log10 of mmHg; the set covers 15 to 30 °C, mostly 20 to 25 °C. The Henry's law constant is on a log10 scale in atm·m3/mol (set defined at 25 °C); higher favours air over water. The unbound fraction in human plasma runs from 0 (all bound) to 1 (all free). Intrinsic clearance (human, µL/min per 10^6 hepatocytes): higher is faster turnover, and 0 stands for none detected. "–" marks a cell with nothing listed here.

- C[C@]12CC[C@H]3[C@@H]([C@H]4C[C@H]4[C@]4(O)C[C@@H](O)CC[C@]34C)[C@@H]1[C@@H]1C[C@@H]1[C@@]2(O)CCCO: logP (octanol/water) 2; log S -3.048 (log10 mol/L)
- CC(=O)OCC(=O)[C@]1(O)[C@@H](O)C[C@@H]2[C@H]3CCC4=CC(=O)C=C[C@@]4(C)[C@@H]3[C@H](OC(C)=O)C[C@]21C: melting point 232.9 °C; log VP -9.639 (log10 mmHg)
- CC1=CCC(C=CC(C)(C)C(C)O)C1(C)C (stereo unspecified): logP (octanol/water) 4.66; log S -5.785 (log10 mol/L); log VP -2.201 (log10 mmHg)
- Clc1ccccc1-c1nc(-c2ccccc2)c(-c2ccccc2)n1C1(c2ccccc2Cl)N=C(c2ccccc2)C(c2ccccc2)=N1: log S -7.12 (log10 mol/L); log VP -8.142 (log10 mmHg)
- COC(=O)C(C)(C)O [Methyl 2-hydroxy-2-methylpropionate]: logP (octanol/water) 0.953; log VP 0.797 (log10 mmHg)
- Cc1ccc(/N=N/c2c(O)c(C(=O)[O-])cc3ccccc23)c(S(=O)(=O)[O-])c1.[Ca+2] [C.I. Pigment Red 57, calcium salt (1:1)]: logP (octanol/water) 0.795; log S -4.678 (log10 mol/L)
- N[C@@H](Cn1ccc(=O)c(O)c1)C(=O)O [(S)-alpha-Amino-3-hydroxy-4-oxo-1(4H)-pyridylpropionic acid]: logP (octanol/water) -2.5; log S -1.18 (log10 mol/L)
- CCOCCCNS(=O)(=O)c1ccc(Oc2cc(O)c3c(c2N)C(=O)c2ccccc2C3=O)cc1: melting point 147 °C; logP (octanol/water) 1.88; log S -4.787 (log10 mol/L); log VP -14.64 (log10 mmHg)
- COCc1ccc(-c2ccc(COC)cc2)cc1 [4,4'-Bis(methoxymethyl)-1,1'-biphenyl]: log S -4.002 (log10 mol/L); log VP -6.195 (log10 mmHg)
- Cc1ccc2c(c1)[C@H](Nc1nc(N)nc(C(C)F)n1)[C@@H](C)C2 (stereo not given in full) [Indaziflam]: log VP -9.726 (log10 mmHg); log H -10.58 (log10 atm·m3/mol)
- C=CC(=O)OCCCCOc1ccc(C(=O)Oc2ccc(OC(=O)c3ccc(OCCCCOC(=O)C=C)cc3)c(C)c2)cc1: melting point 80 °C; logP (octanol/water) 5.1; log S -7.44 (log10 mol/L); log VP -10.46 (log10 mmHg)
- CCCCCCCCCCCCCCCC(=O)N[C@H](C(=O)O)[C@@H](C)CC [Isoleucine, N-(1-oxohexadecyl)-]: melting point 95.5 °C; log S -5.526 (log10 mol/L); log VP -7.824 (log10 mmHg)
- COC(=O)c1c(C)cc(O)c(C)c1O [Methyl 3-methylorsellinate]: logP (octanol/water) 2.6; log VP -4.824 (log10 mmHg)
- C/C(=C\c1ccc(C)cc1)CO [2-Propen-1-ol, 2-methyl-3-(4-methylphenyl)-, (2E)-]: melting point 22.6 °C; boiling point 275.4 °C; logP (octanol/water) 2.39; log S -2.45 (log10 mol/L); log VP -3.535 (log10 mmHg)
- O=S(=O)(c1ccccc1)N(SC(Cl)(Cl)Cl)c1ccccc1 [Benzenesulfonamide, N-phenyl-N-[(trichloromethyl)thio]-]: melting point 110 °C; logP (octanol/water) 4.73; log VP -6.973 (log10 mmHg)
- OCCN1CN(CCO)CN(CCO)C1 [Triazinetriethanol]: melting point -79 °C; logP (octanol/water) -1.255
- CN(C)CCCN(C)CCCN(C)C [2,6,10-Trimethyl-2,6,10-triazaundecane]: melting point -91 °C; log VP 0.477 (log10 mmHg)
- CCCCCCCC/C=C\CCCCCCCC(=O)OCC(COC(=O)CCCCCCC/C=C\CCCCCCCC)(COC(=O)CCCCCCC/C=C\CCCCCCCC)COC(=O)CCCCCCC/C=C\CCCCCCCC [Pentaerythrityl tetraoleate]: melting point -33 °C; log S -7.378 (log10 mol/L)
- Cc1c(N=Nc2cccc(OS(=O)(=O)c3ccccc3)c2)c(O)n(C)c(=O)c1C#N: melting point 200 °C; logP (octanol/water) 5.39; log S -8.783 (log10 mol/L)
- CCCCCCCC(=O)OCCCOC(=O)CCCCCCC [1,3-Propanediol dicaprylate]: melting point 6 °C; logP (octanol/water) 7.6; log VP -5.227 (log10 mmHg)
- CCC[C@H]1CC[C@H]([C@H]2CO[C@H](c3cc(F)c(C(F)(F)Oc4cc(F)c(F)c(F)c4)c(F)c3)OC2)CC1: melting point 82.3 °C; boiling point 366.7 °C; log VP -7.226 (log10 mmHg)
- CCCCOC(=O)NC1CCC(CC2CCC(NC(=O)OCCCC)CC2)CC1 (stereo unspecified) [4,4'-Methylenebis(N-butoxycarbonylcyclohexanamine)]: boiling point 371.1 °C; logP (octanol/water) 5.5; log S -6.722 (log10 mol/L); log VP -9.62 (log10 mmHg)
- C=CC(C)CCCC(C)(C)OC(C)=O (stereo unspecified) [2,6-Dimethyloct-7-en-2-yl acetate]: logP (octanol/water) 4.9; log S -4.271 (log10 mol/L); log VP -0.842 (log10 mmHg)
- Cc1cc(O)c(C(C)C)cc1C [2-Isopropyl-4,5-dimethylphenol]: melting point 70.2 °C; log S -2.809 (log10 mol/L)
- CCCCCCC(=O)OCC(CC)(COC(=O)CCCCCC)COC(=O)CCCCCC [1,1,1-Trimethylolpropane triheptanoate]: melting point -66 °C; log S -6.974 (log10 mol/L)
- CC(c1cc2ccccc2s1)N(O)C(N)=O (stereo unspecified) [Zileuton]: fraction unbound 0.07; hepatic Clint 4.222 µL/min/10^6 cells
- C=C(C)C(=O)OCCOCCOC [2-(2-Methoxyethoxy)ethyl methacrylate]: melting point -76.6 °C; log S -3.481 (log10 mol/L)
- O=[N+]([O-])c1ccccc1NCCO [Ethanol, 2-[(2-nitrophenyl)amino]-]: logP (octanol/water) 1.5; log S -1.993 (log10 mol/L); log VP -6.08 (log10 mmHg)
- O=C(Nc1ccccc1)Nc1ccccc1NS(=O)(=O)c1ccccc1: melting point 158 °C; log VP -4.546 (log10 mmHg)
- C=C(c1ccc(C(=O)O)cc1)c1cc2c(cc1C)C(C)(C)CCC2(C)C [Bexarotene]: logP (octanol/water) 6.9; log S -6.369 (log10 mol/L)
- O/N=C1\CCCC2=C1C1CCC2C1=C(Cl)Cl (stereo partly drawn): melting point 182.7 °C; logP (octanol/water) 4.1; log S -5.208 (log10 mol/L); log VP -6.362 (log10 mmHg)
- CNC(=O)C(C)(C(C)C)C(C)C [Trimethyl isopropyl butanamide]: logP (octanol/water) 2.5; log VP -2.634 (log10 mmHg)

2 of these entries, quoted again:

SMILES	name	melting point (°C)	boiling point (°C)	logP (octanol/water)	log S (log10 mol/L)	log VP (log10 mmHg)	log H (log10 atm·m3/mol)	fraction unbound	hepatic Clint (µL/min/10^6 cells)
CCCCCCC(=O)OCC(CC)(COC(=O)CCCCCC)COC(=O)CCCCCC	1,1,1-Trimethylolpropane triheptanoate	-66	–	–	-6.974	–	–	–	–
O=[N+]([O-])c1ccccc1NCCO	Ethanol, 2-[(2-nitrophenyl)amino]-	–	–	1.5	-1.993	-6.08	–	–	–

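The OPERA project collected these measurements from public sources as training and test data for property models. A listed value is a point estimate from one report or more. Method, purity and exact conditions of the single measurements are not given. A value may pool stereoisomers or salt forms, and the file does not say which form was measured. Some entries may be limits or estimates that an upstream database listed as plain numbers.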